Source: patent publication US20260007760A1, “CAMPTOTHECIN DERIVATIVES THAT BIND TO DDX5 PROTEIN AND PRODRUGS THEREOF” (priority 2022, published 2026)
Like-named read-outs stand apart in the source and are kept apart here.

Test system: A549 cell line (overexpresses ABCG2)

Compound	Cell killing efficacy (IC50)	Cell killing efficacy (IC50) (A549 (overexpresses ABCG2), 3-day incubation)
CC[C@@]1(O)C(=O)OCc2c1cc1n(c2=O)Cc2c-1nc1cc(F)c(C)c3c1c2[C@@H](NC(=O)CO)CC3 [Dxd, reference compound]	increased IC50 values	–
CC[C@@]1(O)C(=O)OCc2c1cc1n(c2=O)Cc2c-1nc1cc3c(c4c1c2[C@@H](NC(=O)[C@@H](C)O)CC4)OCO3 [PBX-7016]	–	still maintain strong efficacy
